Data on 1 substance can be found in patent US7208178B2, “Polymorphs of sodium 4-[(4-chloro-2-hydroxybenzoyl) amino] butanoate” (Emisphere Technologies, Inc., priority 2000, dated 2007).

The nature of the data set: Insulin oral delivery, rat studies: serum human insulin by ELISA. The conditions noted are these: no delivery agent, previous experiments. The procedure: The solution was vortexed, then heated (about 37° C.) and sonicated. The pH was adjusted to about 7 to 8.5 with NaOH or HCl. […] (For example, for compound 1a, a total of 258.5 ml 10N NaOH was added to 501 mg compound in 1.5 ml water, final pH 7.73.) Water was then added to bring the total volume to about 2.4 ml and vortexed. About 1.25 mg insulin from an insulin stock solution (15 mg/ml made from 0.5409 g insulin and 18 ml deionized water, adjusting with HCl and NaOH to pH 8.15 and to obtain a clear solution using 40 ml concentrated HCl, 25 ml 10N NaOH and 50 ml 1N NaOH) was added to the solution and mixed by inverting. The final delivery agent compound dose, insulin dose and dose volume amounts are listed below in Table 1.
The dosing and sampling protocols were as follows. […] Solution was administered by pressing the syringe plunger.
Serum insulin levels were determined with an Insulin ELISA Test Kit (Kit # DSL-10-1600 from Diagnostic Systems Laboratories, Inc., Webster, Tex.), modifying the standard protocol in order to optimize the sensitivity and linear range of the standard curve for the volumes and concentrations of the samples used in the present protocol. […] The five values for each time point were averaged and the results plotted as serum insulin concentration versus time.
(In general: An ELISA detects its analyte on a solid surface through an enzyme-linked reagent.)

With human insulin, the “levels of human insulin following oral dosing with human insulin alone” value was “no measurable levels”.
